Chains of the proteins cited; added tags and fusions are not shown.
UniProt P61169, whole entry: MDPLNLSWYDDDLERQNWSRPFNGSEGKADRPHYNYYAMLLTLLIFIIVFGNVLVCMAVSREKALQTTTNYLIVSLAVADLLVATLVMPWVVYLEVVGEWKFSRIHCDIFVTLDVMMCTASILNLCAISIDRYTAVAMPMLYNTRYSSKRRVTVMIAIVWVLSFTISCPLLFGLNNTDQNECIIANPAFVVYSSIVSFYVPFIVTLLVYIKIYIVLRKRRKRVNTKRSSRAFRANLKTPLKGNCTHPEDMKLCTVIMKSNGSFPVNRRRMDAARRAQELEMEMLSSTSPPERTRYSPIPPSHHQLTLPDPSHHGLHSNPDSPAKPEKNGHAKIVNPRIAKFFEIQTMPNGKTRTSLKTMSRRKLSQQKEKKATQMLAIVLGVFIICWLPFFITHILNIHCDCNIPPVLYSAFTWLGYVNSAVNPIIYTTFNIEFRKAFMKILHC

According to BindingDB's records for PubMed 1356154 (Dupont Pharmaceuticals, 1992):

Biological target: D(2) dopamine receptor (Rattus norvegicus, UniProt P61169)

CN1CCc2cccc3c2[C@H]1Cc1ccc(O)c(O)c1-3 [APOKYN]
Ki: 15 nM
